Molecular target: patatin-17 (pat17) (Solanum cardiophyllum, UniProt Q8LPW4)
Assay: phenyl valerate hydrolase inhibition, spectrophotometric at […] nm
Conditions: read-out: 20 min IC50 (μM) ^1; covalent (Ser77); 20 min preincubation, 37 °C, pH 7.4; racemic inhibitor; crystal holds non-aged (S)-adduct

Amino acid sequences for entries named in this document (tags omitted). Residues count along the entry.
UniProt Q8LPW4, 24-386 limits assumed: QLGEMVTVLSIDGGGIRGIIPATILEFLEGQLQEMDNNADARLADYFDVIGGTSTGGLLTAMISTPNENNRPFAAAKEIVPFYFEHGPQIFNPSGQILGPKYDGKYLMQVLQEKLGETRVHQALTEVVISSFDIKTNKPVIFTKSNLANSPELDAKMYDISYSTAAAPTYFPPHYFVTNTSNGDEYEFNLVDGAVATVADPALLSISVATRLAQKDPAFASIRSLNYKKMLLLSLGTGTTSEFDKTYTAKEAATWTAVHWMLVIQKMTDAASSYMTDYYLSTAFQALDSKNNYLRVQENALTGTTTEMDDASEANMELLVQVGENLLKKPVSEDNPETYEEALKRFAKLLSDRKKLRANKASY

For `CCCCC/C=C\C/C=C\C/C=C\C/C=C\CCCCP(=O)(F)OC` (racemic), the IC50 was 0.116 µM.

From article PMC4172759, “Crystal Structure of Patatin-17 in Complex with Aged and Non-Aged Organophosphorus Compounds” (2014)
